The format of data set [1] is physicochemical. The following applies: buffer, 168 h; for Stability pH4.5 (% remaining peptide): pH 4.5; for Stability pH7.4 (% remaining peptide): pH 7.4. How it is done: After that time course, the sample was centrifuged for 20 min at 4000 rpm and the supernatant was analysed with HPLC-UV. For determination of the amount of the remaining peptide, the peak areas of the target compound at t0 and t7 were compared, resulting in “% remaining peptide”, following the equation % remaining peptide=[(peak area peptide t7)×100]/peak area peptide t0. The chemical stability is expressed as “% remaining peptide”. As HPLC/UPLC method, method D or E has been used.

A further data set is described as follows: physchem. It is filed as physicochemical. The text has this: As HPLC/UPLC method, method D or E has been used.

≈ marks a conversion by molar mass, not a printed value.

Broadly, the solubility is the dissolved amount per volume that the medium holds. Low readings indicate little dissolved substance, high ones much dissolved substance. Regarding `CC[C@H](C)[C@H](NC(=O)[C@H](CC(C)C)NC(=O)[C@H](Cc1c[nH]c2ccccc12)NC(=O)[C@H](CCC(=O)O)NC(=O)[C@@H](NC(=O)[C@H](Cc1ccccc1)NC(=O)[C@H](CC(=O)O)NC(=O)[C@H](CCCNC(=N)N)NC(=O)[C@H](C)NC(=O)[C@H](CC(C)C)NC(=O)[C@H](CCC(N)=O)NC(=O)[C@H](CCC(=O)O)NC(=O)[C@H](CC(=O)O)NC(=O)[C@H](CC(C)C)NC(=O)[C@H](CCC(N)=O)NC(=O)[C@H](CCCCN)NC(=O)[C@H](CO)NC(=O)[C@H](CC(C)C)NC(=O)[C@H](CC(=O)O)NC(=O)[C@H](CO)NC(=O)[C@@H](NC(=O)[C@H](Cc1ccccc1)NC(=O)[C@@H](NC(=O)CNC(=O)[C@H](Cc1c[nH]cn1)NC(=O)C(C)(C)NC(=O)[C@@H](N)Cc1c[nH]cn1)[C@@H](C)O)[C@@H](C)O)[C@@H](C)CC)C(=O)N[C@@H](C)C(=O)NCC(=O)NCC(=O)N1CCC[C@H]1C(=O)N[C@@H](CO)C(=O)N[C@@H](CO)C(=O)NCC(=O)N[C@@H](C)C(=O)N1CCC[C@H]1C(=O)N1CCC[C@H]1C(=O)N1CCC[C@H]1C(=O)N[C@@H](CO)C(N)=O` [SEQ ID NO: 5, H-Aib-HGTFTSDLSKQLDEQLARDFIEWLIAGGPSSGAPPPS-NH2], in data set [1], the “Stability pH4.5 (% remaining peptide)” value is given as 100% and the “Stability pH7.4 (% remaining peptide)” value is given as 77.5%. In the data set “physchem” (pH 4.5), this molecule displayed a solubility at 2 h of 934 µg/mL (≈ 225 µM). In addition, the solubility at 2 h in the data set “physchem” (pH 7.4) is > 1000 µg/mL.
For `CC[C@H](C)[C@H](NC(=O)[C@H](CC(C)C)NC(=O)[C@H](Cc1c[nH]c2ccccc12)NC(=O)[C@H](CCC(=O)O)NC(=O)[C@@H](NC(=O)[C@H](Cc1ccccc1)NC(=O)[C@H](CC(=O)O)NC(=O)[C@H](CCCCN)NC(=O)[C@H](C)NC(=O)[C@H](CC(C)C)NC(=O)[C@H](CCC(N)=O)NC(=O)[C@H](CCC(=O)O)NC(=O)[C@H](CC(=O)O)NC(=O)[C@H](CC(C)C)NC(=O)[C@H](CCC(N)=O)NC(=O)[C@H](CCCCN)NC(=O)[C@H](CO)NC(=O)[C@H](CC(C)C)NC(=O)[C@H](CC(=O)O)NC(=O)[C@H](CO)NC(=O)[C@@H](NC(=O)[C@H](Cc1ccccc1)NC(=O)[C@@H](NC(=O)CNC(=O)[C@H](Cc1c[nH]cn1)NC(=O)C(C)(C)NC(=O)[C@@H](N)Cc1c[nH]cn1)[C@@H](C)O)[C@@H](C)O)[C@@H](C)CC)C(=O)N[C@@H](C)C(=O)NCC(=O)NCC(=O)N1CCC[C@H]1C(=O)N[C@@H](CO)C(=O)N[C@@H](CO)C(=O)NCC(=O)N[C@@H](C)C(=O)N1CCC[C@H]1C(=O)N1CCC[C@H]1C(=O)N1CCC[C@H]1C(=O)N[C@@H](CO)C(N)=O` [compound 9], in that order: 100.0%, 99.5%, 910 µg/mL (≈ 221 µM) and 930 µg/mL (≈ 226 µM).

The values are drawn from US20150166625A1 (Sanofi, priority 2013, published 2015).
